The structures appear in SMILES notation.

Protein sequences, listed by entry. Tags and fused reporters are not part of them.
UniProt O14842, whole entry: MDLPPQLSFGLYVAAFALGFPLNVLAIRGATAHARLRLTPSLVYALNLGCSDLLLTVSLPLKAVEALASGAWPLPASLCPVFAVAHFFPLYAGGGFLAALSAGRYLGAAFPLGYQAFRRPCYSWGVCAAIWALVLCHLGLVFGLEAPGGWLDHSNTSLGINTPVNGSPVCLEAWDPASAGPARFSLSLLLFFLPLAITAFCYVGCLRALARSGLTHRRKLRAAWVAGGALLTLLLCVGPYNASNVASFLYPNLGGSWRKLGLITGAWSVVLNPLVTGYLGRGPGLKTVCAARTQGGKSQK

In the experiment the target is human GPR40 (A2 site) (Homo sapiens, UniProt O14842). As to the kind of experiment: A2 site radioligand binding with [3H]-AM-1638. Conditions: read-out: Kd of radioligand, saturation analysis (A2 site), tested as the radiolabelled form.

For `COc1ccc(F)c(-c2ccc(COc3cccc([C@@H](CC(=O)O)C4CC4)c3)cc2C2=CCCC2(C)C)c1` [AM-1638], the Kd was determined as 1.2 nM.

The record behind these values is article PMC5917010, “Structural basis for GPR40 allosteric agonism and incretin stimulation” (Nature Communications, 2018).
